This assay deals with Recombinant human cathepsin S (CatS) (Homo sapiens, UniProt P25774). Put plainly: biochemical.

Protein sequences, listed by entry. Tags and fused reporters are not part of them. Residues count along the entry.
UniProt P25774, 115-331: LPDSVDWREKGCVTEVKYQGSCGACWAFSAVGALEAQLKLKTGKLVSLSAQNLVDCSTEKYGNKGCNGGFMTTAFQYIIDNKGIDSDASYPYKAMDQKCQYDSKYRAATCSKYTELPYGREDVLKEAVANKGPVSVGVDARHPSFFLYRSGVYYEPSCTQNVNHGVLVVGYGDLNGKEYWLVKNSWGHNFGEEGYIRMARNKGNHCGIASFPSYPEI

Consider 21 molecules from patent US20090099157A1, “TETRAHYDRO-PYRAZOLO-PYRIDINE THIOETHER MODULATORS OF CATHEPSIN S” (priority 2007, published 2009).

With `CS(=O)(=O)N1CCc2c(c(-c3ccc(C(F)(F)F)c(SCCN4CCCC(F)C4)c3)nn2CCCN2CCC(N3CCCC3=O)CC2)C1` (stereo not drawn) [Example 17, 1-{1-[3-(3-{3-[2-(3-Fluoro-piperidin-1-yl)-ethylsulfanyl]-4-trifluoromethyl-phenyl}-5-methanesulfonyl-4,5,6,7-tetrahydro-pyrazolo[4,3-c]pyridin-1-yl)-propyl]-piperidin-4-yl}-pyrrolidin-2-one], the IC50 turned out to be 170 nM.

As to `O=C(C1CCCNC1)N1CCc2c(c(-c3ccc(C(F)(F)F)c(SCCN4CCC(F)CC4)c3)nn2CC(O)CN2CCCCC2)C1` (stereo not drawn) [Example 584, 1-{3-[3-{[2-(4-Fluoropiperidin-1-yl)ethyl]sulfanyl}-4-(trifluoromethyl)phenyl]-5-(piperidin-3-ylcarbonyl)-4,5,6,7-tetrahydro-1H-pyrazolo[4,3-c]pyridin-1-yl}-3-piperidin-1-ylpropan-2-ol], the IC50 was determined as 1240 nM. To `CS(=O)(=O)N1CCc2c(c(-c3ccc(C(F)(F)F)c(SCCN4CCOCC4)c3)nn2CC(O)CN2CCN(c3ccccc3)CC2)C1` (stereo not drawn) [Example 665, 1-[5-(Methylsulfonyl)-3-{3-[(2-morpholin-4-ylethyl)sulfanyl]-4-(trifluoromethyl)phenyl}-4,5,6,7-tetrahydro-1H-pyrazolo[4,3-c]pyridin-1-yl]-3-(4-phenylpiperazin-1-yl)propan-2-ol] belongs 65 nM. To `CC(=O)N1CCN(CC(O)Cn2nc(-c3ccc(C(F)(F)F)c(SCCN4CCOCC4)c3)c3c2CCN(S(C)(=O)=O)C3)CC1` (stereo not drawn) [Example 552, 1-(4-Acetylpiperazin-1-yl)-3-[5-(methylsulfonyl)-3-{3-[(2-morpholin-4-ylethyl)sulfanyl]-4-(trifluoromethyl)phenyl}-4,5,6,7-tetrahydro-1H-pyrazolo[4,3-c]pyridin-1-yl]propan-2-ol] belongs 1580 nM; to `O=C(C1CCCN1C(=O)C(F)(F)F)N1CCc2c(c(-c3ccc(C(F)(F)F)c(SCCN4CCC(F)CC4)c3)nn2CC(O)CN2CCCCC2)C1` (stereo not drawn) [Example 856, 2,2,2-Trifluoro-1-{2-[3-{3-[2-(4-fluoro-piperidin-1-yl)-ethylsulfanyl]-4-trifluoromethyl-phenyl}-1-(2-hydroxy-3-piperidin-1-yl-propyl)-1,4,6,7-tetrahydro-pyrazolo[4,3-c]pyridine-5-carbonyl]-pyrrolidin-1-yl}-ethanone], 1080 nM. On to `CC(C)(C)OC(=O)N1CCCC(C(=O)N2CCc3c(c(-c4ccc(C(F)(F)F)c(SCCN5CCC(F)CC5)c4)nn3CC(O)CN3CCCCC3)C2)C1` (stereo not drawn) [Example 872, 1,1-Dimethylethyl 3-({3-[3-{[2-(4-fluoropiperidin-1-yl)ethyl]sulfanyl}-4-(trifluoromethyl)phenyl]-1-(2-hydroxy-3-piperidin-1-ylpropyl)-1,4,6,7-tetrahydro-5H-pyrazolo[4,3-c]pyridin-5-yl}carbonyl)piperidine-1-carboxylate], for which the IC50 came to 1090 nM.

For `CS(=O)(=O)N1CCc2c(c(-c3ccc(C(F)(F)F)c(SCCN4CCCC(F)(F)C4)c3)nn2C[C@@H](O)CN2CCC(C(N)=O)CC2)C1` [Example 668, 1-[(2S)-3-{3-[3-{[2-(3,3-Difluoropiperidin-1-yl)ethyl]sulfanyl}-4-(trifluoromethyl)phenyl]-5-(methylsulfonyl)-4,5,6,7-tetrahydro-1H-pyrazolo[4,3-c]pyridin-1-yl}-2-hydroxypropyl]piperidine-4-carboxamide], the IC50 is 120 nM. Take `CS(=O)(=O)N1CCc2c(c(-c3ccc(C(F)(F)F)c(SCCN4CC[C@H](F)C4)c3)nn2C[C@@H](O)CN2CCC(N3C[C@H](O)CC3=O)CC2)C1` [Example 764, (4R)-1-{1-[(2S)-3-{3-[3-({2-[(3S)-3-Fluoropyrrolidin-1-yl]ethyl}sulfanyl)-4-(trifluoromethyl)phenyl]-5-(methylsulfonyl)-4,5,6,7-tetrahydro-1H-pyrazolo[4,3-c]pyridin-1-yl}-2-hydroxypropyl]piperidin-4-yl}-4-hydroxypyrrolidin-2-one]: the IC50 was determined as 260 nM. The result for `NC(=O)NC1CCN(C[C@H](O)Cn2nc(-c3ccc(C(F)(F)F)c(SCCN4CCC(F)CC4)c3)c3c2CCNC3)CC1` [Example 341, 1-{1-[(2S)-3-{3-[3-{[2-(4-Fluoropiperidin-1-yl)ethyl]sulfanyl}-4-(trifluoromethyl)phenyl]-4,5,6,7-tetrahydro-1H-pyrazolo[4,3-c]pyridin-1-yl}-2-hydroxypropyl]piperidin-4-yl}urea] reads 1400 nM; that for `O=C(CSc1cc(-c2nn(CC(O)CN3CCC(C(=O)N4CCCC4)CC3)c3c2CNCC3)ccc1C(F)(F)F)N1CCOCC1` (stereo not drawn) [Example 495, 1-(3-{3-[(2-Morpholin-4-yl-2-oxoethyl)sulfanyl]-4-(trifluoromethyl)phenyl}-4,5,6,7-tetrahydro-1H-pyrazolo[4,3-c]pyridin-1-yl)-3-[4-(pyrrolidin-1-ylcarbonyl)piperidin-1-yl]propan-2-ol], 1670 nM.

For the molecule `CS(=O)(=O)N1CCc2c(c(-c3ccc(C(F)(F)F)c(SCCN4CCCCC4)c3)nn2CC(O)CN2CCC(N3CCCC3)CC2)C1` (stereo not drawn) [Example 641, 1-[5-(Methylsulfonyl)-3-{3-[(2-piperidin-1-ylethyl)sulfanyl]-4-(trifluoromethyl)phenyl}-4,5,6,7-tetrahydro-1H-pyrazolo[4,3-c]pyridin-1-yl]-3-(4-pyrrolidin-1-ylpiperidin-1-yl)propan-2-ol], the IC50 came to 220 nM. The result for `O=C(CSc1cc(-c2nn(CC(O)CN3CCC(C(=O)N4CCCC4)CC3)c3c2CN(C(=O)CO)CC3)ccc1C(F)(F)F)N1CCOCC1` (stereo not drawn) [Example 721, 1-[5-(Hydroxyacetyl)-3-{3-[(2-morpholin-4-yl-2-oxoethyl)sulfanyl]-4-(trifluoromethyl)phenyl}-4,5,6,7-tetrahydro-1H-pyrazolo[4,3-c]pyridin-1-yl]-3-[4-(pyrrolidin-1-ylcarbonyl)piperidin-1-yl]propan-2-ol] reads 45 nM. The result for `CS(=O)(=O)N1CCc2c(c(-c3ccc(C(F)(F)F)c(SCC(=O)N4CCC[C@H]4C(F)(F)F)c3)nn2CCCN2CCC(N3CCCC3=O)CC2)C1` [Example 83, (S)-1-{1-[3-(5-Methanesulfonyl-3-{3-[2-oxo-2-(2-trifluoromethyl-pyrrolidin-1-yl)-ethylsulfanyl]-4-trifluoromethyl-phenyl}-4,5,6,7-tetrahydro-pyrazolo[4,3-c]pyridin-1-yl)-propyl]-piperidin-4-yl}-pyrrolidin-2-one] reads 280 nM; that for `NC(=O)C1CCN(CC(O)Cn2nc(-c3ccc(C(F)(F)F)c(SCC(=O)N4CCCC4)c3)c3c2CCNC3)CC1` (stereo not drawn) [Example 307, 1-[2-Hydroxy-3-(3-{3-[(2-oxo-2-pyrrolidin-1-ylethyl)sulfanyl]-4-(trifluoromethyl)phenyl}-4,5,6,7-tetrahydro-1H-pyrazolo[4,3-c]pyridin-1-yl)propyl]piperidine-4-carboxamide], 1130 nM; that for `CS(=O)(=O)N1CCc2c(c(-c3ccc(C(F)(F)F)c(SCCN4CCCCC4)c3)nn2CCCN2CCOCC2)C1` [Example 59, 5-Methanesulfonyl-1-(3-morpholin-4-yl-propyl)-3-[3-(2-piperidin-1-yl-ethylsulfanyl)-4-trifluoromethyl-phenyl]-4,5,6,7-tetrahydro-1H-pyrazolo[4,3-c]pyridine], 810 nM. To `CS(=O)(=O)N1CCc2c(c(-c3ccc(C(F)(F)F)c(SCCN4CCCCC4CO)c3)nn2CCCN2CCC(N3CCCC3=O)CC2)C1` (stereo not drawn) [Example 39, 1-{1-[3-(3-{3-[2-(2-Hydroxymethyl-piperidin-1-yl)-ethylsulfanyl]-4-trifluoromethyl-phenyl}-5-methanesulfonyl-4,5,6,7-tetrahydro-pyrazolo[4,3-c]pyridin-1-yl)-propyl]-piperidin-4-yl}-pyrrolidin-2-one] belongs 280 nM; to `CS(=O)(=O)N1CCc2c(c(-c3ccc(C(F)(F)F)c(SCCN4CCCCC4)c3)nn2CCCN2CCC(O)C2)C1` (stereo not drawn) [Example 58, 1-(3-{5-Methanesulfonyl-3-[3-(2-piperidin-1-yl-ethylsulfanyl)-4-trifluoromethyl-phenyl]-4,5,6,7-tetrahydro-pyrazolo[4,3-c]pyridin-1-yl}-propyl)-pyrrolidin-3-ol.], 1540 nM; to `CS(=O)(=O)N1CCc2c(c(-c3ccc(C(F)(F)F)c(SCCN4CCC(N5CCCC5)CC4)c3)nn2CC(O)CN2CCCC2)C1` (stereo not drawn) [Example 593, 1-{5-(Methylsulfonyl)-3-[3-{[2-(4-pyrrolidin-1-ylpiperidin-1-yl)ethyl]sulfanyl}-4-(trifluoromethyl)phenyl]-4,5,6,7-tetrahydro-1H-pyrazolo[4,3-c]pyridin-1-yl}-3-pyrrolidin-1-ylpropan-2-ol], 4890 nM. Take `O=C(N1CCOCC1)N1CCc2c(c(-c3ccc(C(F)(F)F)c(SCCN4CCC(F)CC4)c3)nn2C[C@@H](O)CN2CCCCC2)C1` [Example 587, (2S)-1-{3-[3-{[2-(4-Fluoropiperidin-1-yl)ethyl]sulfanyl}-4-(trifluoromethyl)phenyl]-5-(morpholin-4-ylcarbonyl)-4,5,6,7-tetrahydro-1H-pyrazolo[4,3-c]pyridin-1-yl}-3-piperidin-1-ylpropan-2-ol]: the IC50 was 640 nM. The result for `CS(=O)(=O)N1CCc2c(c(-c3ccc(C(F)(F)F)c(SCCN4CCC(c5ccccc5)CC4)c3)nn2CCCN2CCC(N3CCCC3=O)CC2)C1` [Example 19, 1-{1-[3-(5-Methanesulfonyl-3-{3-[2-(4-phenyl-piperidin-1-yl)-ethylsulfanyl]-4-trifluoromethyl-phenyl}-4,5,6,7-tetrahydro-pyrazolo[4,3-c]pyridin-1-yl)-propyl]-piperidin-4-yl}-pyrrolidin-2-one] reads 200 nM.

Regarding `CN1CCc2c(c(-c3ccc(C(F)(F)F)c(SCCN4CCCCC4)c3)nn2CC(O)CN2CCC(c3ccccn3)CC2)C1` (stereo not drawn) [Example 248, 1-(5-Methyl-3-{3-[(2-piperidin-1-ylethyl)sulfanyl]-4-(trifluoromethyl)phenyl}-4,5,6,7-tetrahydro-1H-pyrazolo[4,3-c]pyridin-1-yl)-3-(4-pyridin-2-ylpiperidin-1-yl)propan-2-ol], the half-inhibitory concentration (IC50) came to 260 nM.

A word on the IC50: it is the midpoint of a concentration-inhibition curve.
